{"sequences": {"note": "Chains of the proteins cited; added tags and fusions are not shown.", "UniProt P32245, whole entry": "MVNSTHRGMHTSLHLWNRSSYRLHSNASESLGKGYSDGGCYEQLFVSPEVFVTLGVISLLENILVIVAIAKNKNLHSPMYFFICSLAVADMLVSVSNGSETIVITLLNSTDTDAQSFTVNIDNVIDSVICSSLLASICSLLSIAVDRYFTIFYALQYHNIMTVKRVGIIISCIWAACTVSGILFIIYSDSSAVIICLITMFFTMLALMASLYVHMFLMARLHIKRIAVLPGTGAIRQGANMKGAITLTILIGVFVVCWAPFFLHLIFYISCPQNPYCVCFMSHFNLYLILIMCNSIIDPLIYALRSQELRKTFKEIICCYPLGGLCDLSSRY"}, "source": "patent US20070105759", "about": "(published 2007)", "binders": {"B1": {"name": "Compound 87 (peptide)", "chain": "RCEHFRWC", "modifications": "cyclic (Cys-Cys), Ac, 1-Me-His, 4-Cl-D-Phe, NH2; name in text has N-terminal Tyr absent in listing"}}, "target": "human MC4 receptor (human, UniProt P32245)", "experiment": "competition"}
{"binder": "B1", "values": [{"measurement": "Ki", "value": 1.11, "unit": "nM"}]}
